Patent US20260382772A1, “KETO-AMIDE-BASED FIBROBLAST ACTIVATION PROTEIN-TARGETED LIGAND LINKED TO AN IMAGING OR THERAPEUTIC AGENT, COMPOSITIONS, AND METHODS OF USE” (published 2026)

System: 4T1 tumor bearing mice
Assay: Biodistribution of ^177Lu-FAP8-PEG3-IP-DOTA in 4T1 tumor bearing mice
From the text: Balb/c mice were inoculated on their shoulders with 1×10^5 cells of 4T1 cells, whereas nu/nu mice were inoculated on their shoulders with 5×10^6 cells of HT29 (a human colorectal adenocarcinoma cell line), KB (tumor cell line HeLa), MDA-MB-231 (a human breast cancer cell line), or HEK-FAP cells.
For the first study, two different tumor-bearing mice (4T1 and HEK-hFAP) were intravenously injected with [^111In] In-FAP8-PEG3-IP-DOTA (In-Conjugate 24′) (0.74 MBq/mouse, 1-10 nmol/mouse) or [^177Lu] Lu-FAP8-PEG3-IP-DOTA (Lu-Conjugate 24′) (7.4 MBq/mouse, 0.3 nmol-5 nmol/mouse).
At indicated time points (1 hour, 4 hours, 24 hours, 72 hours, 120 hours, and 168 hours post-injection), mice were assessed and/or euthanized by CO2 asphyxiation and organs of interest were harvested, excess blood was rinsed, dried, weighed, and then analyzed by gamma counter, and the results were decay corrected and presented as the percentage of the injected dose per gram of tissue (% ID/g)±standard deviation (SD).
Dose escalation analyses of [^177Lu] Lu-FAP8-PEG3-IP-DOTA (Lu-Conjugate 24′) in 4T1 tumor-bearing mice was performed (n=3) with 0.3 nmol/mouse (FIG. 45A) or 1.0 nmol/mouse (FIG. 45B) of Lu-Conjugate 24′ provided with constant radioactivity (0.74 MBq/mouse) and measured at different times (1 hour, 4 hours, 24 hours, 72 hours, 120 hours, and 168 hours post-injection).

SMILES: COc1ccc(CNC(=O)C(=O)[C@@H]2CC(F)(F)CN2C(=O)CNC(=O)c2ccnc3ccc(OCC(=O)NCCOCCOCCOCCNC(=O)[C@H](CCCCNC(=O)CCCc4ccc(I)cc4)NC(=O)CN4CCN(CC(=O)O)CCN(CC(=O)O)CCN(CC(=O)O)CC4)cc23)cc1OC.[Lu+3]
- Blood uptake (0.3 nmol/mouse, 1 h): 25.42 ± 3.72 % ID/g
- Bone marrow uptake (0.3 nmol/mouse, 1 h): 6.70 ± 4.92 % ID/g
- Heart uptake (0.3 nmol/mouse, 1 h): 5.03 ± 3.16 % ID/g
- Intestine uptake (0.3 nmol/mouse, 1 h): 1.92 ± 0.411 % ID/g
- Kidneys uptake (0.3 nmol/mouse, 1 h): 4.86 ± 3.29 % ID/g
- Liver uptake (0.3 nmol/mouse, 1 h): 7.05 ± 2.01 % ID/g
- Lungs uptake (0.3 nmol/mouse, 1 h): 5.73 ± 1.54 % ID/g
- Spleen uptake (0.3 nmol/mouse, 1 h): 4.12 ± 1.79 % ID/g
- Stomach uptake (0.3 nmol/mouse, 1 h): 1.50 ± 0.78 % ID/g
- Tumor uptake (0.3 nmol/mouse, 1 h): 5.79 ± 3.38 % ID/g
- Tumor/Blood (0.3 nmol/mouse, 1 h): 0.17 ± 0.06
- Tumor/Bone marrow (0.3 nmol/mouse, 1 h): 1.08 ± 0.77
- Tumor/Kidneys (0.3 nmol/mouse, 1 h): 1.19 ± 0.23
- Blood uptake (0.3 nmol/mouse, 4 h): 10.35 ± 4.64 % ID/g
- Bone marrow uptake (0.3 nmol/mouse, 4 h): 4.32 ± 2.99 % ID/g
- Heart uptake (0.3 nmol/mouse, 4 h): 2.72 ± 1.53 % ID/g
- Intestine uptake (0.3 nmol/mouse, 4 h): 1.26 ± 0.64 % ID/g
- Kidneys uptake (0.3 nmol/mouse, 4 h): 3.48 ± 2.54 % ID/g
- Liver uptake (0.3 nmol/mouse, 4 h): 5.79 ± 0.12 % ID/g
- Lungs uptake (0.3 nmol/mouse, 4 h): 4.96 ± 3.24 % ID/g
- Spleen uptake (0.3 nmol/mouse, 4 h): 3.48 ± 1.64 % ID/g
- Stomach uptake (0.3 nmol/mouse, 4 h): 0.73 ± 0.09 % ID/g
- Tumor uptake (0.3 nmol/mouse, 4 h): 5.24 ± 1.91 % ID/g
- Tumor/Blood (0.3 nmol/mouse, 4 h): 0.53 ± 0.31
- Tumor/Bone marrow (0.3 nmol/mouse, 4 h): 1.25 ± 0.85
- Tumor/Kidneys (0.3 nmol/mouse, 4 h): 1.02 ± 0.23
- Blood uptake (0.3 nmol/mouse, 24 h): 4.28 ± 1.46 % ID/g
- Bone marrow uptake (0.3 nmol/mouse, 24 h): 1.49 ± 1.4 % ID/g
- Heart uptake (0.3 nmol/mouse, 24 h): 1.63 ± 1.02 % ID/g
- Intestine uptake (0.3 nmol/mouse, 24 h): 0.65 ± 0.15 % ID/g
- Kidneys uptake (0.3 nmol/mouse, 24 h): 2.09 ± 2.44 % ID/g
- Liver uptake (0.3 nmol/mouse, 24 h): 5.88 ± 2.38 % ID/g
- Lungs uptake (0.3 nmol/mouse, 24 h): 2.12 ± 0.76 % ID/g
- Spleen uptake (0.3 nmol/mouse, 24 h): 2.07 ± 1.11 % ID/g
- Stomach uptake (0.3 nmol/mouse, 24 h): 0.91 ± 0.25 % ID/g
- Tumor uptake (0.3 nmol/mouse, 24 h): 5.94 ± 2.18 % ID/g
- Tumor/Blood (0.3 nmol/mouse, 24 h): 1.35 ± 1.45
- Blood uptake (0.3 nmol/mouse, 72 h): 1.48 ± 0.12 % ID/g
- Bone marrow uptake (0.3 nmol/mouse, 72 h): 1.20 ± 2.08 % ID/g
- Heart uptake (0.3 nmol/mouse, 72 h): 2.08 ± 0.28 % ID/g
- Intestine uptake (0.3 nmol/mouse, 72 h): 0.88 ± 0.27 % ID/g
- Kidneys uptake (0.3 nmol/mouse, 72 h): 1.52 ± 0.59 % ID/g
- Liver uptake (0.3 nmol/mouse, 72 h): 6.39 ± 2.65 % ID/g
- Lungs uptake (0.3 nmol/mouse, 72 h): 2.30 ± 1.00 % ID/g
- Spleen uptake (0.3 nmol/mouse, 72 h): 2.85 ± 1.28 % ID/g
- Stomach uptake (0.3 nmol/mouse, 72 h): 0.67 ± 0.135 % ID/g
- Tumor uptake (0.3 nmol/mouse, 72 h): 5.12 ± 1.34 % ID/g
- Tumor/Blood (0.3 nmol/mouse, 72 h): 3.41 ± 0.55
- Tumor/Bone marrow (0.3 nmol/mouse, 72 h): 1.69 ± 0.0
- Tumor/Kidneys (0.3 nmol/mouse, 72 h): 4.09 ± 2.30
- Bone marrow uptake (0.3 nmol/mouse, 120 h): 0.85 ± 5.57 % ID/g
- Heart uptake (0.3 nmol/mouse, 120 h): 1.07 ± 0.30 % ID/g
- Intestine uptake (0.3 nmol/mouse, 120 h): 0.68 ± 0.37 % ID/g
- Kidneys uptake (0.3 nmol/mouse, 120 h): 2.12 ± 0.88 % ID/g
- Liver uptake (0.3 nmol/mouse, 120 h): 3.62 ± 1.59 % ID/g
- Lungs uptake (0.3 nmol/mouse, 120 h): 1.53 ± 1.52 % ID/g
- Spleen uptake (0.3 nmol/mouse, 120 h): 2.22 ± 0.28 % ID/g
- Stomach uptake (0.3 nmol/mouse, 120 h): 0.54 ± 0.22 % ID/g
- Tumor uptake (0.3 nmol/mouse, 120 h): 3.32 ± 2.49 % ID/g
- Tumor/Blood (0.3 nmol/mouse, 120 h): 3.99 ± 2.45
- Tumor/Bone marrow (0.3 nmol/mouse, 120 h): 3.03 ± 1.91
- Tumor/Kidneys (0.3 nmol/mouse, 120 h): 1.62 ± 0.63
- Blood uptake (0.3 nmol/mouse, 168 h): 0.4 ± 0.1 % ID/g
- Bone marrow uptake (0.3 nmol/mouse, 168 h): 1.76 ± 1.72 % ID/g
- Heart uptake (0.3 nmol/mouse, 168 h): 0.8 ± 0.5 % ID/g
- Intestine uptake (0.3 nmol/mouse, 168 h): 0.6 ± 0.2 % ID/g
- Kidneys uptake (0.3 nmol/mouse, 168 h): 1.33 ± 1.02 % ID/g
- Liver uptake (0.3 nmol/mouse, 168 h): 4.93 ± 0.49 % ID/g
- Lungs uptake (0.3 nmol/mouse, 168 h): 0.5 ± 0.2 % ID/g
- Spleen uptake (0.3 nmol/mouse, 168 h): 3.13 ± 0.98 % ID/g
- Stomach uptake (0.3 nmol/mouse, 168 h): 0.46 ± 0.05 % ID/g
- Tumor uptake (0.3 nmol/mouse, 168 h): 3.43 ± 0.98 % ID/g
- Tumor/Blood (0.3 nmol/mouse, 168 h): 8.4 ± 0.94
- Tumor/Bone marrow (0.3 nmol/mouse, 168 h): 4.77 ± 4.55
- Tumor/Kidneys (0.3 nmol/mouse, 168 h): 3.55 ± 2.09
- Blood uptake (1.0 nmol/mouse, 1 h): 16.3 ± 6.47 % ID/g
- Bone marrow uptake (1.0 nmol/mouse, 1 h): 1.46 ± 1.05 % ID/g
- Heart uptake (1.0 nmol/mouse, 1 h): 2.00 ± 1.08 % ID/g
- Intestine uptake (1.0 nmol/mouse, 1 h): 1.67 ± 1.53 % ID/g
- Kidneys uptake (1.0 nmol/mouse, 1 h): 3.51 ± 0.22 % ID/g
- Liver uptake (1.0 nmol/mouse, 1 h): 5.23 ± 0.52 % ID/g
- Lungs uptake (1.0 nmol/mouse, 1 h): 1.97 ± 1.67 % ID/g
- Spleen uptake (1.0 nmol/mouse, 1 h): 2.66 ± 0.69 % ID/g
- Stomach uptake (1.0 nmol/mouse, 1 h): 1.13 ± 0.77 % ID/g
- Tumor uptake (1.0 nmol/mouse, 1 h): 4.59 ± 1.59 % ID/g
- Tumor/Blood (1.0 nmol/mouse, 1 h): 0.22 ± 0.06
- Tumor/Bone marrow (1.0 nmol/mouse, 1 h): 7.53 ± 8.14
- Tumor/Kidneys (1.0 nmol/mouse, 1 h): 1.15 ± 0.40
- Blood uptake (1.0 nmol/mouse, 4 h): 10.16 ± 8.11 % ID/g
- Bone marrow uptake (1.0 nmol/mouse, 4 h): 0.63 ± 0.44 % ID/g
- Heart uptake (1.0 nmol/mouse, 4 h): 1.89 ± 0.31 % ID/g
- Intestine uptake (1.0 nmol/mouse, 4 h): 1.51 ± 1.15 % ID/g
- Kidneys uptake (1.0 nmol/mouse, 4 h): 7.89 ± 1.58 % ID/g
- Liver uptake (1.0 nmol/mouse, 4 h): 5 ± 1.00 % ID/g
- Lungs uptake (1.0 nmol/mouse, 4 h): 3.16 ± 2.58 % ID/g
- Spleen uptake (1.0 nmol/mouse, 4 h): 2.28 ± 0.71 % ID/g
- Stomach uptake (1.0 nmol/mouse, 4 h): 0.95 ± 0.47 % ID/g
- Tumor uptake (1.0 nmol/mouse, 4 h): 9.19 ± 4.39 % ID/g
- Tumor/Blood (1.0 nmol/mouse, 4 h): 0.93 ± 0.14
- Tumor/Bone marrow (1.0 nmol/mouse, 4 h): 15.60 ± 3.49
- Tumor/Kidneys (1.0 nmol/mouse, 4 h): 1.49 ± 0.14
- Blood uptake (1.0 nmol/mouse, 24 h): 4.66 ± 1.32 % ID/g
- Bone marrow uptake (1.0 nmol/mouse, 24 h): 2.26 ± 1.06 % ID/g
- Heart uptake (1.0 nmol/mouse, 24 h): 1.04 ± 0.32 % ID/g
- Intestine uptake (1.0 nmol/mouse, 24 h): 0.89 ± 0.37 % ID/g
- Kidneys uptake (1.0 nmol/mouse, 24 h): 4.4 ± 0.79 % ID/g
- Liver uptake (1.0 nmol/mouse, 24 h): 4.6 ± 1.40 % ID/g
- Lungs uptake (1.0 nmol/mouse, 24 h): 0.92 ± 0.52 % ID/g
- Spleen uptake (1.0 nmol/mouse, 24 h): 1.93 ± 0.09 % ID/g
- Stomach uptake (1.0 nmol/mouse, 24 h): 0.51 ± 0.101 % ID/g
- Tumor uptake (1.0 nmol/mouse, 24 h): 6.93 ± 1.10 % ID/g
- Tumor/Blood (1.0 nmol/mouse, 24 h): 1.15 ± 0.04
- Tumor/Bone marrow (1.0 nmol/mouse, 24 h): 2.27 ± 0.10
- Tumor/Kidneys (1.0 nmol/mouse, 24 h): 1.38 ± 0.33
- Blood uptake (1.0 nmol/mouse, 72 h): 1.48 ± 0.06 % ID/g
